Assay [1] deals with T1, purified PenA1 β-lactamase (Burkholderia multivorans, UniProt A0A0H3KN52).
T1 sequence (A0A0H3KN52 28-302): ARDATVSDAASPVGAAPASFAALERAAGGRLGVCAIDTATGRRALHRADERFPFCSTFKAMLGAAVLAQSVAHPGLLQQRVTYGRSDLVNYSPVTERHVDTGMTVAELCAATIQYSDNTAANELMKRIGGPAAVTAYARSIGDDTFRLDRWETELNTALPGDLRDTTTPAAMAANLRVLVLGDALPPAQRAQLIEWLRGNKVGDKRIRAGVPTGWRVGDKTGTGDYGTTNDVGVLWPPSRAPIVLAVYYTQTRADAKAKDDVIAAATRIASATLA
The experiment in a line: Acylation rate k2/K. The format is biochemical. The settings on record: acylation rate (kinact/KI or k2/K), nitrocefin 100 μM reporter.

In assay [2] the target is T2, PenA1 β-lactamase (wild-type) (Burkholderia multivorans, UniProt A0A0H3KN52).
T2 sequence (A0A0H3KN52 28-302): T1 sequence (A0A0H3KN52 28-302)
The experiment in a line: IC50 with crude protein extracts, nitrocefin reporter. The format is biochemical.

In publication PMC8324038 (ACS infectious diseases, 2021) one finds k2/K and IC50 data, which are given here for 1 molecule.

Broadly, the IC50 is the midpoint of a concentration-inhibition curve. High values mean weaker potency, low ones greater potency. With `NC(=O)[C@@H]1CC[C@@H]2CN1C(=O)N2OS(=O)(=O)O` [avibactam], the k2/K in assay [1] fell in the range of 340 to 2e+06 M⁻¹ s⁻¹. In assay [2], inhibition was half-maximal at 1 µM (IC50).
